Test results from paper PMC7191384, “Multimodal α-Glucosidase and α-Amylase Inhibition and Antioxidant Effect of the Aqueous and Methanol Extracts from the Trunk Bark of Ceiba pentandra” (BioMed Research International, 2020).

Biological target: T1, α-amylase (Sus scrofa, UniProt P00690)
T1 sequence (P00690 16-511): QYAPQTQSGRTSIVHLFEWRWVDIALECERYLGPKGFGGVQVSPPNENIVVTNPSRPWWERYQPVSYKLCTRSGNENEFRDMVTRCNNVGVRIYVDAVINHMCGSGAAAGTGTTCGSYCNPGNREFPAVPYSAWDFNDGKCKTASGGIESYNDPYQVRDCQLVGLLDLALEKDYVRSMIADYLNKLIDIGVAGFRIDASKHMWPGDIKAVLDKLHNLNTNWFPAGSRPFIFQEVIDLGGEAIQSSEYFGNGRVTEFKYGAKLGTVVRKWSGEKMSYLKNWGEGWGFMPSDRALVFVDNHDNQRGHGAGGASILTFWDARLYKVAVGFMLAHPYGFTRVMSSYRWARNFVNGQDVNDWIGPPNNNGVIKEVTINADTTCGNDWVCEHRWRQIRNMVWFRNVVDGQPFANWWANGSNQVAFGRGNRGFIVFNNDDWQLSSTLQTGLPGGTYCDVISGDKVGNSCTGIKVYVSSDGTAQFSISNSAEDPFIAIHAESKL
Experiment: α-Amylase inhibitory test (starch/DNS)
Format: biochemical
Conditions: at the highest concentrations used

## C[C@H]1O[C@H](O[C@H]2[C@H](O)[C@@H](O)[C@@H](O[C@H]3[C@H](O)[C@@H](O)C(O)O[C@@H]3CO)O[C@@H]2CO)[C@H](O)[C@@H](O)[C@@H]1N[C@H]1C=C(CO)[C@@H](O)[C@H](O)[C@H]1O (stereo partly shown) [Acarbose, acarbose]
  Maximum inhibition of α-amylase: 84%
